Data set [1] deals with U87 cell line (PTEN and CDKN2A mutated). Description: In-vitro relative growth assay (CellTiter 96 Aqueous One), U87 cell line. In kind it is cell-based, human. The settings on record: FIG. 4A: Nelfinavir 5 μM, Metformin 0.5 mM, Rosuvastatin 12.5 μM, individually or combined, about 71 hours. The procedure:
[table] U251 cell line is procured from Sigma-Aldrich (Catalog number: 09063001). The U87 human cell line is procured from ATCC (American Type Culture Collection, Manassas, Va., ATCC® HTB-14TM). LN229 cell line is procured from ATCC (American Type Culture Collection, Manassas, Va., […]). […] DMSO, Digitoxin and drugs (Nelfinavir, Metformin and Rosuvastatin individually and in combination) are serial diluted in an assay media. 100 μl/well of the diluted sample is added to assay plate containing resuspended cells. […] The assay plate is incubated for about 71 hours followed by addition of about 20 μl of Promega Substrate CellTiter 96 Aqueous One Solution Reagent to each well. It is incubated at 37° C. The absorbance of the sample is read at about 490 nm.

For data set [2] the following is noted: in vivo; cited from earlier work.

Molecules are shown by their SMILES.

Consider `[H]/N=C(/N=C(N)N)N(C)C` [Metformin, 1-carbamimidamido-N,N-dimethyl-methanimidamide], for which the “reduction in relative growth” value in data set [1] is “do not show much efficacy”. Moreover, in data set [2], the Metabolism entry is “not metabolized”.

The values above are taken from US10098880B2 (CELLWORKS GROUP INC., priority 2014, dated 2018).
